# Positions of bridges follow the written chain, without caps; N, C: chain ends. Residues, ends and D or L forms follow the SMILES beside them.
# Biological target: T1, m-CTR:pcDNA (m-CTR alone) (Mus musculus, UniProt Q60755)
# T1 sequence (Q60755 42-496 isoform Q60755-2 limits assumed): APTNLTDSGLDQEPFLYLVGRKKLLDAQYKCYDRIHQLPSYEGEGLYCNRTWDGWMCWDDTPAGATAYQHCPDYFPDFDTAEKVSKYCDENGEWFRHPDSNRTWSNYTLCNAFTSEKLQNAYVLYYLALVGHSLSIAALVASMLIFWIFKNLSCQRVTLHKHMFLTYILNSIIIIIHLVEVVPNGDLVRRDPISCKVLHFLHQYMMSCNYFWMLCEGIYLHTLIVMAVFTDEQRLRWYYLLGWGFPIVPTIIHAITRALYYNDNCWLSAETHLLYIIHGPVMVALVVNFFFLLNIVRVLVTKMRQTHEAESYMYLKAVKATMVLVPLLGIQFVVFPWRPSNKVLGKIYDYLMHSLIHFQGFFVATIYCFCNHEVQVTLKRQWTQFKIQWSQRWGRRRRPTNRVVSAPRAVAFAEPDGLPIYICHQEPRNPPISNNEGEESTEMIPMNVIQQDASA
# Assay: cAMP production, agonist concentration-response, transfected Cos7 cells
# Type: cell-based
# Conditions: cAMP pEC50
compound,measurement,value
CC(C)C[C@H](NC(=O)[C@H](CCCNC(=N)N)NC(=O)[C@H](Cc1c[nH]cn1)NC(=O)[C@@H](NC(=O)[C@@H](NC(=O)[C@@H]1CSSC[C@H](NC(=O)[C@@H](N)CO)C(=O)N[C@@H](CC(N)=O)C(=O)N[C@@H]([C@@H](C)O)C(=O)N[C@@H](C)C(=O)N[C@@H]([C@@H](C)O)C(=O)N1)C(C)C)[C@@H](C)O)C(=O)N[C@@H](C)C(=O)N[C@@H](CC(=O)O)C(=O)N[C@@H](CC(C)C)C(=O)N[C@@H](CC(C)C)C(=O)N[C@@H](CO)C(=O)N[C@@H](CCCNC(=N)N)C(=O)N[C@@H](CO)C(=O)NCC(=O)NCC(=O)N[C@H](C(=O)N[C@@H](CC(C)C)C(=O)N[C@@H](CCCCN)C(=O)N[C@@H](CC(=O)O)C(=O)N[C@@H](CC(N)=O)C(=O)N[C@@H](Cc1ccccc1)C(=O)N[C@H](C(=O)N1CCC[C@H]1C(=O)N[C@H](C(=O)N[C@@H](CC(=O)O)C(=O)N[C@H](C(=O)NCC(=O)N[C@@H](CO)C(=O)N[C@@H](CCC(=O)O)C(=O)N[C@@H](C)C(=O)N[C@@H](Cc1ccccc1)C(N)=O)C(C)C)[C@@H](C)O)C(C)C)C(C)C [m-βCGRP] (H-SCNTATCVTHRLADLLSRSGGVLKDNFVPTDVGSEAF-NH2; disulfide 2-7),fold more potent than m/r-Amy,~ 10 fold

# — article PMC8776895 (British journal of pharmacology, 2021)
